System: mice
Settings: mouse, in vivo

## CO[C@@]12CC[C@@]3(C[C@@H]1[C@](C)(O)C(C)(C)C)[C@H]1Cc4ccc(O)c5c4[C@@]3(CCN1CC1CC1)[C@H]2O5 [Compound 1b, buprenorphine]
  Agonist activity in the acetic acid stretch test: potent and fully efficacious
